This is an account of results in US20260014194A1, “COMBINATIONS COMPRISING METAP2 INHIBITORS FOR THE TREATMENT OF CANCER” (SynDevRx, Inc., priority 2022, published 2026).

The data set is described as follows: Body weight, adipose tissue mass and tolerability in E0771 tumor-bearing high-fat diet mice. The conditions noted are these: eribulin mesylate 2 mg/kg, IP/Q4D; multiple early terminations; FIG. 4.

The structures appear in SMILES notation.

Turning to `C=C1C[C@@H]2CC[C@@]34C[C@H]5O[C@H]6[C@@H](O3)[C@H]3O[C@H](CC[C@@H]3O[C@H]6[C@H]5O4)CC(=O)C[C@@H]3[C@@H](OC)[C@@H](C[C@H](O)CN)O[C@H]3C[C@H]3O[C@@H](CC[C@@H]1O2)C[C@@H](C)C3=C`, the Tolerability entry is on record as “not well tolerated”.
